This note sets out measurements from PubChem BioAssay AID463079 (The Scripps Research Institute Molecular Screening Center, 2010).

The entries are a selection whose mix differs from that of the whole data set. Some structures show a salt or complex split into parts, the way the source records it. The source made the active and inactive calls.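 How the source made its calls: active means inhibition above that plate's mean sample inhibition plus 3 SD (cut at about 26% in these data); inactive means the rest.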

A short description of the test: nonselective Gq signaling inhibition in CHO cells – cell-based, fluorescence, Fluo-8 calcium dye, counter-screen for OX1R antagonist project, primary screen (AID 463079).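 Further: 0% = ATP-challenged DMSO wells and 100% = DMSO wells without ATP.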 The following applies: parental CHO-K1, ATP-induced calcium, Fluo-8 fluorescence; at 5.6 µM; stronger effect = higher value. A general note: A counterscreen serves to expose hits that act by an unwanted route or on another target.
For `CCN(CC)CCCOC(=O)C(O)(c1ccccc1)c1ccccc1`, the inhibition was inactive: -6.83%.
Turning to `Cc1cccc(C)c1OP(C)(N)=O` (configuration not stated), the inhibition is inactive: -1.73%.
In the case of `CC(C)(C)c1ccc(OP(C)(=O)Nc2ccc(SC(F)(F)F)cc2)cc1` (configuration not stated), the inhibition is inactive: -28%.
For the molecule `O=[N+]([O-])c1ccc2c(c1)C=Nc1ccccc1O2`, the inhibition is inactive: -11.6%.
Then `O=[N+]([O-])c1cc([N+](=O)[O-])c(Nc2cccnc2)c([N+](=O)[O-])c1`, with inactive: 11.6%; and `COc1ccc(OP(C)(=O)Nc2cccc(F)c2)cc1` (configuration not stated), with inactive: -8.51%.
With `COc1ccccc1OP(C)(=O)Nc1cc(Cl)ccc1C` (configuration not stated), the inhibition was inactive: -3.47%.
Then `Cc1cc(C)cc(OP(C)(N)=O)c1` (configuration not stated), with inactive: 9.42%.
Then `CCOC(=O)c1ccc(NP(C)(=O)Oc2ccccc2)cc1` (configuration not stated), with inactive: -0.77%; and `Cc1ccc(NP(C)(=O)Oc2ccccc2)c(C)c1` (configuration not stated), with inactive: -7.11%; and `COc1ccccc1OP(C)(=O)Nc1ccc(C)cc1` (configuration not stated), with inactive: 4.27%.
Consider `COc1ccccc1OP(C)(=O)Nc1ccccc1` (configuration not stated), for which the inhibition is inactive: 11.4%.
The figure for `CP(=O)(Nc1ccccc1Br)Oc1ccccc1` (configuration not stated) is inactive: -5.13%; for `CP(=S)(Nn1cnnc1)Oc1ccccc1` (configuration not stated) it is inactive: -1.55%.
Then `Cc1cc(C)cc(OP(C)(=O)Nc2ccc(SC(F)(F)F)cc2)c1` (configuration not stated), with inactive: -5.75%.
Regarding `CP(=O)(NC(=O)Nc1ccccc1)Oc1ccccc1` (configuration not stated), the inhibition is inactive: 0.15%.
Then `CCc1ccc(OP(C)(=O)N2CCN(c3ccc([N+](=O)[O-])cc3)CC2)cc1` (configuration not stated), with inactive: 8.88%; and `CP(=O)(Oc1ccccc1)OC(c1ccccc1)C(F)(F)F` (configuration not stated), with inactive: -7.13%; and `Cc1cccc(C)c1OP(C)(=O)Nc1ccc(SC(F)(F)F)cc1` (configuration not stated), with inactive: 12.4%.
The figure for `CP(=O)(Nc1ccc(SC(F)(F)F)cc1)Oc1ccc(Cl)cc1` (configuration not stated) is inactive: -10.1%; for `CP(=O)(Nc1ccccn1)Oc1ccc(Cl)cc1` (configuration not stated) it is inactive: -5.98%.
Then `CCOP(C)(=S)SCC(=O)NC(C)C(=O)O` (configuration not stated), with inactive: 3.36%; and `CCOC(=O)c1ccc(NP(C)(=O)Oc2ccc(OC)cc2)cc1` (configuration not stated), with inactive: -3.22%; and `O=[N+]([O-])c1cc([N+](=O)[O-])c(O)c([N+](=O)[O-])c1.c1ccc(Oc2ccncc2)cc1`, with inactive: 1.03%.
As for `O=[N+]([O-])c1cc([N+](=O)[O-])c(-n2nnc3ccccc32)c([N+](=O)[O-])c1`, the inhibition is inactive: -8.05%.
With `Cc1nc2ccc3ccccc3c2s1.O=[N+]([O-])c1cc([N+](=O)[O-])c(O)c([N+](=O)[O-])c1`, the inhibition was inactive: -9.09%.
For `O=[N+]([O-])c1cc([N+](=O)[O-])c(-c2cnn(-c3ccccc3)c2)c([N+](=O)[O-])c1`, the inhibition was inactive: -2.23%.
The figure for `CCOC(=O)C(CC)C1=NC(C)(C)Cc2ccccc21.O=[N+]([O-])c1cc([N+](=O)[O-])c(O)c([N+](=O)[O-])c1` (configuration not stated) is inactive: -9.18%; for `CC1=C2N=C(C=C3N=C(C(C)=C4[N-][C@@](C)([C@@H]5N=C1[C@](C)(CCC(=O)NC[C@@H](C)OP(=O)([O-])O[C@H]1[C@@H](O)[C@@H](n6cnc7cc(C)c(C)cc76)O[C@@H]1CO)[C@H]5CC(N)=O)[C@@](C)(CC(N)=O)[C@@H]4CCC(N)=O)[C@@](C)(CC(N)=O)[C@@H]3CCC(N)=O)C(C)(C)[C@@H]2CCC(N)=O.[C-]#N.[Co+3]` it is inactive: 0.95%; for `O=[N+]([O-])c1cc([N+](=O)[O-])c(Nc2nnnn2CCO)c([N+](=O)[O-])c1` it is inactive: -1.33%.
Then `CP(=O)(Nc1ccc(SC(F)(F)F)cc1)Oc1ccccc1` (configuration not stated), with inactive: -10.6%.
With `COc1ccccc1OP(C)(=O)Nc1c(C)cccc1C` (configuration not stated), the inhibition is inactive: -2.08%.
Consider `CN1CCCCC1COC(=O)C1(O)c2ccccc2CCc2ccccc21` (configuration not stated), for which the inhibition was inactive: -21.1%.
The figure for `O=C(O)c1cccc(Nc2c([N+](=O)[O-])cc([N+](=O)[O-])cc2[N+](=O)[O-])c1` is inactive: 5.02%; for `CC1=NCCc2c1[nH]c1ccccc21.O=[N+]([O-])c1cc([N+](=O)[O-])c(O)c([N+](=O)[O-])c1` it is inactive: -11.5%.
Consider `Cc1cc(C)cc(OP(C)(=O)Nc2ccc(C)cc2C)c1` (configuration not stated), for which the inhibition is inactive: -13.4%.
Consider `CCOC(=O)c1ccc(NP(C)(=O)Oc2cc(C)cc(C)c2)cc1` (configuration not stated), for which the inhibition was inactive: -28.7%.
Then `COc1ccccc1OP(C)(=O)Nc1cccc(Br)c1` (configuration not stated), with inactive: -8.72%; and `Cc1cc(C)cc(OP(C)(=O)Nc2ccccn2)c1` (configuration not stated), with inactive: -16%.
The figure for `CP(=O)(Nc1cccc(Br)c1)Oc1ccccc1` (configuration not stated) is inactive: -8.03%; for `Cc1ccc(C)c(NP(C)(=O)Oc2ccccc2)c1` (configuration not stated) it is inactive: -6.49%.
Then `CC(C)c1ccc(OP(C)(=O)Nc2ccc(SC(F)(F)F)cc2)cc1` (configuration not stated), with inactive: -15.2%; and `CP(=O)(Nc1ccccc1F)Oc1ccccc1` (configuration not stated), with inactive: -5.96%; and `COc1ccc2c(c1O)-c1c(O)c(OC)cc3c1[C@H](C2)[N+](C)(C)CC3.O=[N+]([O-])c1cc([N+](=O)[O-])c([O-])c([N+](=O)[O-])c1[O-]`, with inactive: -8.45%.
On to `O=C(OCCN1CCN(CCOCc2ccccc2)CC1)C(O)(c1ccccc1)c1ccccc1`, for which the inhibition is inactive: -14.2%.
The figure for `O=C(OC1CN2CCC1CC2)c1ccc([N+](=O)[O-])cc1` (configuration not stated) is inactive: -11.8%.
Then `COc1ccc(OP(C)(=O)Nc2ccc(SC(F)(F)F)cc2)cc1` (configuration not stated), with inactive: 5.27%.
Take `CCOC(=O)c1ccc(NP(C)(=O)Oc2ccc(F)cc2)cc1` (configuration not stated): the inhibition was inactive: 0.74%.
On to `CCCCCOc1ccc(NP(C)(=O)Oc2ccc(Cl)cc2Cl)cc1` (configuration not stated), for which the inhibition is inactive: -20.5%.
Then `O=[N+]([O-])c1cc([N+](=O)[O-])c(OC2CCCCC2O)c([N+](=O)[O-])c1` (configuration not stated), with inactive: -12.5%; and `CP(=O)(Nc1ccccc1)Oc1ccc(F)cc1` (configuration not stated), with inactive: 13%.
Take `CCN(CC)CCCOC(=O)C(O)(c1ccccc1)C1CCCCC1` (configuration not stated): the inhibition is inactive: -22.4%.
For the molecule `COc1ccc(NP(C)(=O)Oc2ccccc2OC)cc1` (configuration not stated), the inhibition was inactive: -8.48%.
The figure for `CN(C)CCOC(=O)C(O)(c1ccccc1)C1CCCCC1` (configuration not stated) is inactive: -21%; for `COc1ccc(OP(C)(=O)Nc2cccc(Br)c2)cc1` (configuration not stated) it is inactive: -8.66%.
The figure for `O=[N+]([O-])c1cc([N+](=O)[O-])c(NCC2CCS(=O)(=O)C2)c([N+](=O)[O-])c1` (configuration not stated) is inactive: -7.17%.
For `CCOP(C)(=S)SCC(=O)NC(C)(CC)C(=O)O` (configuration not stated), the inhibition is inactive: -7.44%.
`CP(=O)(Nc1ccc(SC(F)(F)F)cc1)Oc1ccc(F)cc1` (configuration not stated): the inhibition was inactive: 0.58%.
With `Cc1ccccc1NP(C)(=O)Nc1ccccc1C`, the inhibition is inactive: -13.8%.
Regarding `CP(=O)(Nc1ccc2c(c1)OCCO2)Oc1ccccc1` (configuration not stated), the inhibition was inactive: -2.02%.
Then `CCc1ccc(OP(C)(=O)Nc2cccnc2)cc1` (configuration not stated), with inactive: -17%.
The figure for `CP(=O)(Oc1ccccc1)N1CCOC1=O` (configuration not stated) is inactive: 7.93%.
Take `O=C(OCCCN1CCCC1)C(O)(c1ccccc1)C1CCCCC1` (configuration not stated): the inhibition was inactive: -8.88%.
The figure for `COc1ccccc1OP(C)(=O)Nc1c(C)n(C)n(-c2ccccc2)c1=O` (configuration not stated) is inactive: -18.7%; for `COc1ccc(OP(C)(=O)Nc2ccc(Br)cc2)cc1` (configuration not stated) it is inactive: -5.94%.
The figure for `CCN(CC)CC(O)COC(=O)C(O)(c1ccccc1)C1CCCCC1` (configuration not stated) is inactive: -5.82%.
As to `CN(C)C(=O)c1c([N+](=O)[O-])cc([N+](=O)[O-])cc1[N+](=O)[O-]`, the inhibition is inactive: -1.28%.
Then `CP(=O)(Nc1ccc(Cl)cc1)Oc1ccc(F)cc1` (configuration not stated), with inactive: -9.27%; and `COc1ccccc1OP(C)(=O)Nc1ccccc1Br` (configuration not stated), with inactive: -18%.
Then `CC(C)(C)c1ccc(OP(C)(=O)O)cc1`, with inactive: 10.8%; and `CP(=O)(OC12CC3CC(CC(C3)C1)C2)OC12CC3CC(CC(C3)C1)C2`, with inactive: -15.8%.
Then `CCOC(=O)c1ccc(NP(C)(=O)Oc2ccc(Cl)cc2)cc1` (configuration not stated), with inactive: -5.95%; and `Nc1ccc2c(ccc3cccnc32)n1.O=[N+]([O-])c1cc([N+](=O)[O-])c(O)c([N+](=O)[O-])c1`, with inactive: -14.9%.
As for `COc1ccc(OP(C)(=O)Nc2ccccc2Br)cc1` (configuration not stated), the inhibition was inactive: -13.6%.
On to `COc1ccccc1OP(C)(=O)Nc1ccc(C)c(C)c1` (configuration not stated), for which the inhibition was inactive: 3.11%.
Consider `Cc1cc(C)cc(OP(C)(=O)Nc2cccc(C(F)(F)F)c2)c1` (configuration not stated), for which the inhibition is inactive: -10.1%.
Then `CP(=O)(Nc1ccc(Cl)cc1Cl)Oc1ccccc1` (configuration not stated), with inactive: -5.22%; and `CP(=O)(OCCOc1ccccc1)OCCOc1ccccc1`, with inactive: -3.19%; and `Cc1nc2ccc3ccccc3c2o1.O=[N+]([O-])c1cc([N+](=O)[O-])c(O)c([N+](=O)[O-])c1`, with inactive: -0.86%.
The figure for `CN(C)CCOC(=O)C(O)(c1ccccc1)C1CCCC1` (configuration not stated) is inactive: -6.54%.
The figure for `COc1ccc(OP(C)(=O)Nc2ccccn2)cc1` (configuration not stated) is inactive: -9.61%.
With `COc1ccccc1OP(C)(=O)Nc1ccc(Br)cc1` (configuration not stated), the inhibition was inactive: 10.2%.
The figure for `CCc1ccc(OP(C)(=O)O)cc1` is inactive: -1.66%; for `COc1ccccc1OP(C)(=O)Nc1ccc(C)cc1C` (configuration not stated) it is inactive: -9.79%; for `CP(=O)(Nc1ccccn1)Oc1ccccc1` (configuration not stated) it is inactive: -0.52%.
As for `Cc1c(NP(C)(=O)Oc2ccc(C(C)C)cc2)c(=O)n(-c2ccccc2)n1C` (configuration not stated), the inhibition was inactive: -9.47%.
The figure for `O=[N+]([O-])c1cc([N+](=O)[O-])c(Nc2ccccn2)c([N+](=O)[O-])c1` is inactive: -4.55%.

One may read the inhibition as the drop in the measured response relative to a control, in per cent.
